Bounds are passed on as bounds.

The chains behind the UniProt entries cited, without tags or fusion partners.
UniProt P41146, whole entry: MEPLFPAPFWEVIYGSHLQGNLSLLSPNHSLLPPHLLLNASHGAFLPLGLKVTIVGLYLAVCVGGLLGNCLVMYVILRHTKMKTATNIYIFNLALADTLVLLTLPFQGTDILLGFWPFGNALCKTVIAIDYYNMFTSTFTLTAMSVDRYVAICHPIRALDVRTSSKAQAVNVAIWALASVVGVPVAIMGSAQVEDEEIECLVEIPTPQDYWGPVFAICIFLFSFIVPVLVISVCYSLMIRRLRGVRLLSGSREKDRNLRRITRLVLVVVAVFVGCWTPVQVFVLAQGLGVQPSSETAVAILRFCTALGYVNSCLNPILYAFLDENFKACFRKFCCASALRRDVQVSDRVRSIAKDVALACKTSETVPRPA

This assay addresses human ORL-1 receptor (Homo sapiens, UniProt P41146). Briefly: ORL-1 receptor-binding test ([3H]-nociceptin). Particulars: read-out: Affinity Ki (nM) ORL-1, membrane of HEK293 cell expressing human ORL-1 receptor. As for the experimental part: Using a receptor membrane product prepared from HEK293 cell forcively expressing human ORL-1 receptor, a [^3H]-nociceptin binding test was performed. To be specific, a test substance solution (50 μL) having various concentrations, a receptor product solution (900 μL) and a labeled ligand [^3H]-nociceptin (50 μL) were successively added to a polypropylene tube and reacted at 25° C. for 60 min. The reaction mixture was filtered by suction in a cell harvester using a glass filter Whatman GF/B. The filter was washed 3 times with ice-cooled 50 mmol/L HEPES buffer, and placed in a measurement vial. A liquid scintillation cocktail ACS-II (Amersham) (2 mL) was added, and the radiation dose was measured by a liquid scintillation counter (LSC-5100, Aloka). The non-specific binding level was determined using an unlabeled ligand naltrexone. The binding inhibitory rate (%) and inhibitory constant (Ki value) were calculated according to the following calculation formula. binding inhibitory rate (%)={1−(B−N)/(T−N)}×100 N: non-specific binding level, T: total binding level, B: binding level in the presence of a test substance inhibitory constant (Ki value)=IC50/(1+L/Kd) IC50: 50% inhibitory concentration, L: labeled ligand concentration, Kd: dissociation constant of labeled ligand

Broadly, the Ki is the dissociation constant of the complex between target and ligand, obtained from inhibition or displacement. Consider `CNC(=O)Cn1c(=O)n(C2CCN(C3CCCc4c(C)cccc43)CC2)c2ccccc21` (stereo not shown), for which the Ki is below 10 nM.

The record behind these values is patent US8877779B2 (priority 2007, dated 2014).
